Literature values in patent publication US8497245B2, “Trypsin-like serine protease inhibitors, their preparation and use as selective inhibitors of the clotting factors IIa and Xa” (The Medicines Company (Leipzig) GmbH, priority 2010, dated 2013).

Biological target: thrombin (factor IIa) (Homo sapiens, UniProt P00734)
Conditions: literature value; cited from earlier work

Question: Which Ki does the source give for CC1CNc2c(cccc2S(=O)(=O)N[C@@H](CCCNC(=N)N)C(=O)N2CC[C@@H](C)C[C@@H]2C(=O)O)C1 (stereo partly shown) [Argatroban] here?
Answer: Its Ki is 27 to 39 nM.
